Target: liver AT1 receptors (Rattus norvegicus, UniProt P25095)
Format: binding
Design: Kd of 125I-SI Ang II binding: unit not given beside the values

Amino acid sequences for entries named in this document (tags omitted).
UniProt P25095, whole entry: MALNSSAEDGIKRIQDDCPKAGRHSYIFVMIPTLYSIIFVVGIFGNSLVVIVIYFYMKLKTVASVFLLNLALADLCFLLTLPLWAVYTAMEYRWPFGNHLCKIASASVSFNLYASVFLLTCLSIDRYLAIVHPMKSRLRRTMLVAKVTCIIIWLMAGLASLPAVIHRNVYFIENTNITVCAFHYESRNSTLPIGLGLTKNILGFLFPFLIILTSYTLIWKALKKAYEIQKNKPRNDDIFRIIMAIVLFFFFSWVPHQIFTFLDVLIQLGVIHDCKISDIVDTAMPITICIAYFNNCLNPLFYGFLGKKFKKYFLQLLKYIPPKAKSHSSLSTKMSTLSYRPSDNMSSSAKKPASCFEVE

125I-Sarcosine1, Isoleucine8 angiotensin II [125I-SI Ang II]
Bmax of 125I-SI Ang II binding: 23.3±0.89
Kd of 125I-SI Ang II binding: 3.57±0.20

From publication PMC4152863 (Regulatory peptides, 2013)
